This note sets out measurements from ChEMBL document CHEMBL1221254, “Succinic acid amides as P2-P3 replacements for inhibitors of interleukin-1beta converting enzyme (ICE or caspase 1)” (Bioorg Med Chem Lett, 2010).

The structures appear in SMILES notation.

Assay [1] can be described thus: Selectivity ratio of human ICE to caspase 6.
The nature of assay [2]: Selectivity ratio of human ICE to caspase 4.
The nature of assay [3]: Selectivity ratio of human ICE to caspase 8.
A short description of assay [4]: Selectivity ratio of human ICE to caspase 3.

`Cc1[nH]c2ccccc2c1CCNC(=O)C[C@H](C(=O)N[C@H](C=O)CC(=O)O)C(C)C`: the Selectivity ratio in assay [1], in assay [2], in assay [3] and in assay [4] was > 200 throughout.

Take `CC(C)[C@H](CC(=O)NCCc1cccc2ncccc12)C(=O)N[C@H](C=O)CC(=O)O`: the Selectivity ratio in assay [1], in assay [2], in assay [3] and in assay [4] was > 200 each time.

Consider `O=C[C@H](CC(=O)O)NC(=O)[C@@H]1CCCN2C(=O)CC[C@H](NC(=O)c3nccc4ccccc34)C(=O)N12` [VRT-18858], for which the Selectivity ratio in assay [1], in assay [2], in assay [3] and in assay [4] was 53 throughout.
